# logP (octanol/water) values, as collected for the OPERA models

From the experimental data distributed with OPERA 2.9.

logP is the log10 of the octanol-water partition coefficient; higher is more lipophilic. "via" names the databases from which the curators took the value.

CC(C)(c1cc(Br)c(OCCO)c(Br)c1)c1cc(Br)c(OCCO)c(Br)c1 [Tetrabromobisphenol A bis(2-hydroxyethyl) ether] is reported with log Kow 4.97 (via OCHEM).
COc1ccc(N)c(N)c1.[Cl][Pt][Cl] [Platinum (II), dichloro(4-methoxy-o-phenylenediammine)-] is reported with log Kow -0.315 (via OCHEM).
O=C1OC(=O)C2C1C1(Cl)C(Cl)=C(Cl)C2(Cl)C1(Cl)Cl (stereo not given) [Chlorendic anhydride] is reported with log Kow 1.39 (via OFMPub, eChemPortal).
CN1CCC2CC1Cc1ccccc12.Cl (stereo not given) is reported with log Kow -1.65 (via OCHEM).
Cc1cccc(N)c1C [2,3-Xylidine] is reported with log Kow 2.005 (via OCHEM, PubChem).
Cc1cc(N)ccc1N.Cl.Cl [p-Toluenediamine dihydrochloride] is reported with log Kow 0.019 (via PubChem).
CC(=O)O.Cc1nc(N)cc2[nH]c3ccccc3c12 [Trp-P-2 acetate] is reported with log Kow 1.97 (via OCHEM).
COc1cc(CCN)ccc1O [4-(2-Aminoethyl)-2-methoxyphenol] is reported with log Kow -0.08 (via OCHEM).
N#CCO [Hydroxyacetonitrile] is reported with log Kow -1.13 (via OCHEM, PubChem).
CCCCOP(=O)(O)OCCCC [Phosphoric acid, dibutyl ester] is reported with log Kow 0.57 (via eChemPortal).
CCC(=O)OC(Cc1ccccc1)(c1cccc(OC)c1)C(C)CN(C)C.O=C(O)CC(=O)O (stereo not given) is reported with log Kow 3.83 (via OCHEM).
CN(CC(=O)[O-])C(=N)NP(=O)([O-])O.[Na+].[Na+] is reported with log Kow -1.17 (via eChemPortal).
C[C@@H]1O[C@@H](O[C@H]2CC[C@@]3(C)[C@H](CC[C@@H]4[C@@H]3CC[C@]3(C)[C@@H](C5=CC(=O)OC5)CC[C@]43O)C2)[C@H](O)[C@H](O)[C@H]1O [Evomonoside] is reported with log Kow 2.1 (via OCHEM).
O=C(CCl)c1ccccc1 [2-Chloroacetophenone] is reported with log Kow 1.84 (via OCHEM).
Cc1cc([N+](=O)[O-])ccc1N [2-Methyl-4-nitroaniline] is reported with log Kow 1.311 (via eChemPortal).
N#Cc1cc([N+](=O)[O-])ccc1N [2-Amino-5-nitrobenzonitrile] is reported with log Kow 1.6 (via OCHEM).
S=C(SSC(=S)N(Cc1ccccc1)Cc1ccccc1)N(Cc1ccccc1)Cc1ccccc1 [Tetrabenzylthiuram disulfide] is reported with log Kow 3.7 (via eChemPortal).
C[C@H]1O[C@@H](O[C@H]2[C@@H](O)C[C@H](O[C@H]3CC[C@@]4(C)[C@H](CC[C@@H]5[C@@H]4C[C@@H](O)[C@]4(C)[C@@H](C6=CC(=O)OC6)CC[C@]54O)C3)O[C@@H]2C)C[C@H](O)[C@@H]1O is reported with log Kow 1.2 (via OCHEM).
Br.NCCBr [Ethanamine, 2-bromo-, hydrobromide (1:1)] is reported with log Kow 0.795 (via eChemPortal).
CCCC(C)(C)OC(N)=O [2-Methylpentan-2-yl carbamate] is reported with log Kow 1.45 (via OCHEM).
C[C@]12C[C@H](N3CCOCC3)[C@@H](O)C[C@@H]1CC[C@@H]1[C@@H]2CC[C@]2(C)[C@@H](O)[C@@H](N3CCCC3)C[C@@H]12 is reported with log Kow 4.6 (via eChemPortal).
O=CCCl [2-Chloroacetaldehyde] is reported with log Kow 0.495 (via PubChem, eChemPortal).
CN1C(=O)CN=C(c2ccccc2Cl)c2cc(Cl)ccc21 [2-Chlorodiazepam] is reported with log Kow 3.12 (via OCHEM).
O=C1NC(=O)C(=NO)C(=O)N1 [2,4,5,6(1H,3H)-Pyrimidinetetrone, 5-oxime] is reported with log Kow -1.2 (via eChemPortal).
C=C(C)CCl [3-Chloro-2-methylpropene] is reported with log Kow 1.98 (via PubChem).
CC(C)CCOC(=O)Cc1ccccc1 [3-Methylbutyl phenylacetate] is reported with log Kow 4.08 (via eChemPortal).
CC(C)C[C@H](CN)CC(=O)O [Pregabalin] is reported with log Kow 1.3 (via PubChem).
FCC(F)(F)F [1,1,1,2-Tetrafluoroethane] is reported with log Kow 1.06 (via eChemPortal).
O=C1C[N+]([O-])=C(c2ccccc2)c2cc(Cl)ccc2N1CCO is reported with log Kow 0.82 (via OCHEM).
C1CCC2CCCCC2C1 (stereo not given) [Decalin] is reported with log Kow 4.7 (via OCHEM).
CCCCCCCCCCCCCCCC[N+](C)(C)C.[Cl-] [Hexadecyl trimethyl ammonium chloride] is reported with log Kow 3.23 (via OCHEM).
O=C=Nc1ccc(Cl)cc1 [4-Chlorophenyl isocyanate] is reported with log Kow 3.12 (via eChemPortal).
C[N+](C)(C)CC1CCCO1.[I-] (stereo not given) [N,N,N-Trimethyl(oxolan-2-yl)methanaminium iodide] is reported with log Kow -2.3 (via OCHEM).
ClCOCCl [bis(Chloromethyl) ether] is reported with log Kow 1.045 (via PubChem).
O=C1C[C@@H]2OCC=C3CN4CCC56c7cc([N+](=O)[O-])ccc7N1[C@H]5[C@H]2[C@H]3C[C@H]46 (stereo partly drawn) [2-Nitrostrychnidin-10-one] is reported with log Kow 1.61 (via OCHEM).
O=C1OC(=O)c2c(Cl)c(Cl)c(Cl)c(Cl)c21 is reported with log Kow 3.145 (via eChemPortal).
Br.CC(Cc1ccc(O)cc1)NCC(=O)c1cc(O)cc(O)c1 (stereo not given) is reported with log Kow 0.5 (via eChemPortal).
CO[C@@]12[C@H](COC(=N)O)C3=C(C(=O)C(C)=C(N=C4CC=NN4)C3=O)N1C[C@@H]1N[C@@H]12 is reported with log Kow 0.08 (via OCHEM).
CC1CN1 (stereo not given) [Propyleneimine] is reported with log Kow 0.13 (via PubChem).
Cc1ccc2c(C)cccc2c1 [1,6-Dimethylnaphthalene] is reported with log Kow 4.44 (via OCHEM).
CC(=O)OC1CC2(O)C3CCC4CC(O)CCC4(C)C3CCC2(C)C1C1=CC(=O)OC1 (stereo not given) [16-(Acetyloxy)-3,14-dihydroxycard-20(22)-enolide] is reported with log Kow 1.93 (via OCHEM).
O=C1CC2OCC=C3CN4CCC56c7ccccc7N1C5C2C3CC46O (stereo not given) [16-Hydroxystrychnidin-10-one] is reported with log Kow 1.82 (via OCHEM).
COC1C(O)CC(OC2C(O)CC(OC3C(O)CC(OC4CCC5(C)C(CCC6C5CCC5(C)C(C7=CC(=O)OC7)CCC65O)C4)OC3C)OC2C)OC1C (stereo not given) is reported with log Kow 3.11 (via OCHEM).
C/C(=N\NC(=O)Nc1cc(F)cc(F)c1)c1ncccc1C(=O)[O-].[Na+] [Diflufenzopyr-sodium] is reported with log Kow 0.255 (via eChemPortal).

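These are experimental values that the OPERA curators gathered from public databases to train and test their QSAR models. A listed value is a point estimate from one report or more. How each value was measured is not recorded, so precision varies. The measured form (salt, isomer or mixture) is not always the one drawn. Some entries may be limits or estimates that an upstream database listed as plain numbers.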